# From ChEMBL document CHEMBL1131018 (J Med Chem, 1998)
# Sequences of proteins named here, by UniProt entry; tags and fusion partners are left off.
# UniProt P09619, whole entry: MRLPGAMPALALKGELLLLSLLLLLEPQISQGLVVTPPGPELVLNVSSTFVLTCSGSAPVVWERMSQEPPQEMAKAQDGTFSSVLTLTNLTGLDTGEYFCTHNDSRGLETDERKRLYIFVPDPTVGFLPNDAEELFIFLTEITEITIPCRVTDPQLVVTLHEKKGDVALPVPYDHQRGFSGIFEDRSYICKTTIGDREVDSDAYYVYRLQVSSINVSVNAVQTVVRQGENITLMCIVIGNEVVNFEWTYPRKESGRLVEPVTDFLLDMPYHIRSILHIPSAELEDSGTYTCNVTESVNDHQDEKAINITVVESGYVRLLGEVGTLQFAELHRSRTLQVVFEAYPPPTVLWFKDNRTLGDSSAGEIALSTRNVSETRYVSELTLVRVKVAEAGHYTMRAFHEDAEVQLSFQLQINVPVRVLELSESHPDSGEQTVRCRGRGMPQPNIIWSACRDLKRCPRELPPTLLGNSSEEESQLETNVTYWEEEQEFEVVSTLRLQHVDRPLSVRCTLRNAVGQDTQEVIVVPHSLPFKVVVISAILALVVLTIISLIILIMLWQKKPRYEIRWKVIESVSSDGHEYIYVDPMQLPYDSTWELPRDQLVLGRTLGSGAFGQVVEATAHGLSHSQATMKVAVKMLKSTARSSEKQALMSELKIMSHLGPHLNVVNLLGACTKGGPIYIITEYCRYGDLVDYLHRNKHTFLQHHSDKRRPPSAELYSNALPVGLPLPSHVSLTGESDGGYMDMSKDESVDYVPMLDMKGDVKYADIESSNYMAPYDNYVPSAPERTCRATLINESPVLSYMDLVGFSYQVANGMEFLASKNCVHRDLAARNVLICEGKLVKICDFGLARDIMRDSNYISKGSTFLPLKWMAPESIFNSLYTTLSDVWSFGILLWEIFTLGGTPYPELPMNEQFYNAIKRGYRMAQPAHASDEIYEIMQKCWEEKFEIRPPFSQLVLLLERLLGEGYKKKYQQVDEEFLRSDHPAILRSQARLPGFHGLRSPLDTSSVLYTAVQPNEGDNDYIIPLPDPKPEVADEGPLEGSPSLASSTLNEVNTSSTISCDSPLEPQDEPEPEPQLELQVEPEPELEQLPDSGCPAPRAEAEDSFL
# Target: Platelet-derived growth factor receptor beta (Homo sapiens, UniProt P09619)
# Assay: Test concentration required to achieve 50% inhibition of tyrosine phosphorylation on human Platelet-derived growth factor receptor beta (PDGF RTK).
smiles,measurement,value
CN(C)c1ccc(/C=C2\C(=O)Nc3ccccc32)cc1,IC50,19.4 µM
